# scFv variants of Ab-14 (light chain) against a SARS-CoV-2 spike peptide

Binding partner: SARS-CoV-2 spike HR2 peptide, sequence PDVDLGDISGINAS.

Parent: Ab-14, a human scFv built as VH, a (GGGGS)3 linker, VL. Only the CDRs of the light chain vary.
VH: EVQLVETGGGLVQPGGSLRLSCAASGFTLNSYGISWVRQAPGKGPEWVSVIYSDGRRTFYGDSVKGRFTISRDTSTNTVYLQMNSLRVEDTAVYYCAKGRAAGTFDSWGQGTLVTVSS
VL: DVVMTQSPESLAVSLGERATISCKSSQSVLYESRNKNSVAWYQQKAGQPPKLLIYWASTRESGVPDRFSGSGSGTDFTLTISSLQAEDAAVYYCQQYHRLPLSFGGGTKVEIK

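The starting antibody came from a phage panning campaign against this peptide. These sequences belong to a second round, designed from the earlier measurements on random variants of the parent. Their group label is 14L_En_Gibbs (En: ensemble of fine-tuned language models; Gibbs: Gibbs sampling). In AlphaSeq, yeast of one mating type display the scFv and yeast of the other type display the target. Pairs that bind mate more often; barcode pairs of the diploids are counted by sequencing. Scores were corrected for input abundance and mapped to Kd with protein pairs of known affinity run in the same pool. Mating was done six times.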

Each variant is given by its three light chain CDRs, as the data file delimits them; those of the parent are KSSQSVLYESRNKNSVA, WASTRES, QQYHRLPLS. Scale: log10 of Kd in nM, estimated from mating counts; low values are strong binders. "n.d." marks a missing value. The strain was present, yet no cells mated with the target were sequenced in that replicate, which points to weak or no binding.

CDR-L1,CDR-L2,CDR-L3,"replicates, log10 nM",control signals
MVNQHDEGFKGVKDNIA,NAETREG,QHYGRLPLS,0.85 / 1.34 / 1.09 / 0.96 / 1.10 / 1.52,0/18
KLRLHNLMFYEQENSIA,GVSNRAY,QQYYRLPLN,1.67 / 1.91 / 1.69 / 1.96 / 1.15 / 1.94,2/18 (2.25)
HINTADVGVSDHYNAVA,EQRIAGI,QQYFRLPLS,0.59 / -0.19 / 0.03 / -0.08 / -0.18 / 0.33,0/18
TLYMGPTEARDDKHAIA,NMNERDY,QQYHRLPLV,1.05 / 1.14 / 0.46 / 0.72 / 1.13 / 0.88,0/18
SMAYFQGGYNQQEKAIA,ESATREQ,QQYFRLPLT,1.21 / 1.08 / 1.61 / 1.92 / 1.45 / 1.51,0/18
NLNDSEMQMPQDTSNIA,QTTLRNL,QQYAKLPLS,0.82 / 0.43 / -0.06 / 0.05 / -0.09 / 0.37,0/18
GILSQMDGPTAYKENIA,NETERLR,QQYQRLPLT,0.95 / 0.97 / 0.68 / 0.88 / 0.64 / 0.56,1/18 (2.68)
MINMEVGIEDMKWNSVA,SAHVRAF,QQYGRLPFS,0.92 / 0.83 / 0.85 / 0.93 / 0.98 / 0.96,0/18
HIDQYTSYDNGEDRAIA,DVTIKDY,QQYARLPLL,2.15 / 0.76 / 1.23 / 2.31 / 1.88 / 1.65,0/18
HFAKQLQSLYNSKQNVA,NASTVMV,QHYNRLPLS,1.28 / 0.98 / 1.03 / 1.48 / 1.00 / 1.29,0/18
NLDKHDYESRQMINAIA,DMSTLMA,QQYASLPLD,1.32 / 2.04 / 1.19 / 1.58 / 1.70 / 1.34,1/18 (2.09)
SLRAMILDWDNKMQNIA,DVHMREQ,QQYNRLPIV,0.61 / 0.41 / 0.34 / 0.35 / 0.41 / 0.68,1/18 (3.12)
NLMGQGDHSIKHANSIA,NVDIVDM,QQYAHLPLS,1.41 / 1.02 / 0.80 / 1.10 / 1.13 / 1.49,0/18
NMSDSQERMASILRNIA,DQTTRAM,QQYARLPLS,n.d. / n.d. / n.d. / n.d. / n.d. / 2.78,0/18
MLRFDDTYGQKNWHAIA,ETSELGA,QQYAHLPLG,1.51 / 1.99 / 1.01 / n.d. / 1.38 / 2.45,1/18 (1.68)
HFAQTRQEDIQDKNSVA,EGSVVIS,QQYSKLPLS,n.d. / n.d. / n.d. / n.d. / 2.43 / n.d.,1/18 (2.29)
NMKGGLNFEDINHQAIA,SVDEREK,QQYHRLPLQ,0.85 / 0.75 / 0.76 / 0.44 / 0.58 / 0.65,1/18 (3.10)
NLKENNVDNQTKYSNIA,SADQREK,QQYYRLPLQ,0.26 / 0.24 / 0.15 / -0.02 / 0.06 / 0.16,1/18 (4.57)
VLAMGSYQKYRHENNIA,EANMRAQ,QQYNRLPFQ,0.37 / -0.13 / 0.00 / -0.10 / -0.27 / -0.01,1/18 (3.16)
IISANNVMQGSNWDAVA,QGEIANN,QQYARLPLS,1.81 / 1.65 / 1.15 / n.d. / 1.28 / 1.82,0/18
MIEIIPNGYMEMRSNVA,DGSLVRM,QQYARLPLM,n.d. / n.d. / n.d. / n.d. / n.d. / n.d.,0/18
TLMHHQGRYDVWKESIA,EASIRAS,QQYQRLPLA,0.91 / 1.03 / 0.81 / 1.30 / 1.40 / 1.32,2/18 (3.26)
NLSGHQYNNSQKKNSIA,EDNNIRL,QQYHRLPFT,n.d. / 2.51 / 2.23 / 3.61 / 2.80 / 2.53,2/18 (3.07)
QLGHYKHENMAKWQNIA,NMTIREK,QQYAHLPLA,n.d. / 1.30 / 2.50 / 2.43 / 2.00 / 2.28,0/18
HVAQTRQEDIQNKNNVA,EGSVVIS,QQYSKLPFS,0.76 / 0.35 / 0.79 / 0.59 / 0.66 / 0.51,2/18 (2.28)
KLESRQYHFGADHQSIA,DAHISMN,QQYMHLPFT,0.78 / 0.99 / 0.91 / 0.42 / 0.72 / 0.74,1/18 (2.70)
ALSIQQQEPTGIVNSIA,QTSLREH,QQYHHLPLC,0.60 / 0.72 / 0.44 / 0.15 / 0.50 / 0.97,2/18 (2.32)
NISYEQALSTYSVNNVA,QASVRAP,QMYQRLPLV,0.72 / 2.74 / n.d. / n.d. / n.d. / 2.18,0/18
KLMNSLGAFKQSEDNVA,EVEQKVA,QQYDHLPLT,n.d. / n.d. / n.d. / n.d. / n.d. / n.d.,0/18
HMNTADVGVSDHYNSVA,EQREAGI,QQYFRLPLS,1.45 / 1.55 / 0.80 / 0.71 / 2.16 / 0.93,1/18 (1.40)
RLLDWAYGWTAKERNIA,DEDIRGA,QQYSHLPLA,n.d. / n.d. / n.d. / n.d. / n.d. / n.d.,0/18
KIQSHLSQSFASWNNIA,DRVQSAE,QQYNRLPLV,0.43 / 0.23 / 0.35 / 0.13 / -0.10 / 0.18,0/18
RFDMAMPHAHSNINSIA,EDAIQAD,QQYDRLPLS,n.d. / n.d. / n.d. / n.d. / 1.14 / 1.62,0/18
SLNKEAWDFNQTWNAVA,DHSMRVT,QQYIRLPLT,1.68 / 2.03 / 1.30 / 0.56 / 1.03 / 0.97,0/18
FLAYASDQTGLQGNAIA,QVNLKEN,QQYMRLPLA,n.d. / 1.97 / n.d. / n.d. / n.d. / n.d.,1/18 (0.64)
QLAVDRLMEYTMGDAIA,GKTLRVD,QQYARLPLS,0.22 / 0.13 / 0.03 / 0.21 / 0.01 / 0.16,0/18
KVDMYELPMEFNRSAVA,QAEVRAP,QQYWRLPLE,1.93 / 1.41 / 1.76 / 1.68 / 1.74 / 2.59,0/18
HMKDEPGFGPQTYSSIA,HAEIREP,QQYYRLPLM,0.60 / 0.37 / 0.31 / 0.53 / 0.18 / 0.29,2/18 (2.74)
KLDYLNGYSDIGGDSIA,EVSTAGM,QQYIRLPLS,1.16 / n.d. / n.d. / 1.43 / 2.23 / n.d.,0/18
MMLYGDNSVGSQKDSIA,EAEQVME,QHYFRLPLV,n.d. / 3.19 / 2.71 / 3.85 / 2.08 / n.d.,0/18
KIELDLTRYNAGYAAIA,HETMKAQ,QQYSRLPLV,0.82 / 0.42 / 0.65 / 0.65 / 0.61 / 0.48,0/18
NLTTGYEQGALNTDNVA,HGNMREA,QQYYRLPLS,-0.06 / -0.12 / -0.27 / -0.10 / -0.11 / 0.02,0/18
KLDQKMNQFGQNGNNIA,HGEEFRI,QQYHSLPLS,n.d. / 4.59 / n.d. / n.d. / n.d. / n.d.,0/18
RFDQTEQMGIRDYNSVA,NGSQSAT,QHYSRLPIS,3.56 / 2.46 / 1.79 / 1.91 / 2.37 / 1.91,1/18 (3.54)
TLGMQPTEMRDNKHAVA,DSNQRDR,QSYMRLPLS,0.39 / 0.58 / 0.18 / 0.13 / 0.39 / 0.87,0/18

The 8 strongest on average among those seen in every replicate, once more:

CDR-L1,CDR-L2,CDR-L3,"replicates, log10 nM",control signals
NLTTGYEQGALNTDNVA,HGNMREA,QQYYRLPLS,-0.06 / -0.12 / -0.27 / -0.10 / -0.11 / 0.02,0/18
VLAMGSYQKYRHENNIA,EANMRAQ,QQYNRLPFQ,0.37 / -0.13 / 0.00 / -0.10 / -0.27 / -0.01,1/18 (3.16)
HINTADVGVSDHYNAVA,EQRIAGI,QQYFRLPLS,0.59 / -0.19 / 0.03 / -0.08 / -0.18 / 0.33,0/18
QLAVDRLMEYTMGDAIA,GKTLRVD,QQYARLPLS,0.22 / 0.13 / 0.03 / 0.21 / 0.01 / 0.16,0/18
NLKENNVDNQTKYSNIA,SADQREK,QQYYRLPLQ,0.26 / 0.24 / 0.15 / -0.02 / 0.06 / 0.16,1/18 (4.57)
KIQSHLSQSFASWNNIA,DRVQSAE,QQYNRLPLV,0.43 / 0.23 / 0.35 / 0.13 / -0.10 / 0.18,0/18
NLNDSEMQMPQDTSNIA,QTTLRNL,QQYAKLPLS,0.82 / 0.43 / -0.06 / 0.05 / -0.09 / 0.37,0/18
HMKDEPGFGPQTYSSIA,HAEIREP,QQYYRLPLM,0.60 / 0.37 / 0.31 / 0.53 / 0.18 / 0.29,2/18 (2.74)

The authors' rule: three or more of the six replicates give a measured affinity, fewer mean a poor binder. Values of this round are not directly comparable with the first-round values of the same sequences. Background: pairings of all light chain designs with three empty control strains gave a value in 4% of cases (median 2.64, 5th percentile 1.59). Values in that range, when seen in few replicates, are hard to tell from nonspecific mating. For each scFv, signals with the empty controls are counted beside the result, with their mean in brackets.

Data: MIT Lincoln Laboratory AlphaSeq set, Li et al. 2023, doi:10.1038/s41467-023-39022-2, as distributed in FLAb.